Reference: publication PMC10330721, “Chemo-enzymatic synthesis and biological activity evaluation of propenylbenzene derivatives” (Frontiers in Microbiology, 2023)

Test system: human red blood cells (RBCs)
Experiment: Haemolytic activity assay
Format: cell-based
Settings: 1 h, 37°C

Question: With isoeugenol [5a] as the substance, how does the Percentage of haemolysis (10 µM) read?
Answer: The Percentage of haemolysis was 1.379 ± 0.047%.

Question: What about the Percentage of haemolysis (20 µM) of the same substance?
Answer: Its Percentage of haemolysis is 1.161 ± 0.047%.

Question: What about the Percentage of haemolysis (40 µM) of the same substance?
Answer: The Percentage of haemolysis was 1.753 ±0.134%.

Question: What about the Percentage of haemolysis (60 µM) of the same substance?
Answer: Its Percentage of haemolysis is 1.881 ± 0.020%.

Question: What about the Percentage of haemolysis (80 µM) of the same substance?
Answer: The Percentage of haemolysis was 2.047± 0.080%.

Question: What about the Percentage of haemolysis (100 µM) of the same substance?
Answer: Its Percentage of haemolysis is 2.185± 0.261%.
